# Measured values as given in PubChem BioAssay AID651640 (Broad Institute, 2012).
# The list shows a part of the results, in another mix than the full data. Results filed as inconclusive are left out. Activity calls are given as the source filed them. Rule as the data show it: active = CPE inhibition above about 20% (passing the limit was not always enough); inconclusive = no clear call, values can overlap the other calls; tested in BHK-21 cells.
# Assay: inhibitors of DENV2 cytopathic effect, primary screen, cell-based, plate reader, single concentration (AID 651640);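 also: 0% = median of neutral control wells and 100% = median of positive control wells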
# Conditions: DENV2-infected cells, cytopathic effect rescue, at 9.99 µM, active compounds read high
row,Compound,CPE inhibition
1,CCOP(=O)(Nc1cccc2ccccc12)OCC,inactive: 2.22%
2,Nc1cccc2c([As](=O)(O)O)cccc12,inactive: 1.79%
3,Cc1ccc(NCCc2c([N+](=O)[O-])cc([N+](=O)[O-])cc2[N+](=O)[O-])cc1,inactive: 1.56%
4,CCCOP(=S)(Nc1nc(N)cc(=O)[nH]1)OCCC,inactive: 9.05%
5,O=[As](O)(c1cccc(O)c1)c1cccc(O)c1,inactive: -5.31%
6,O=C(OC1CN2CCC1CC2)c1ccc(Cl)cc1 (configuration not stated),inactive: 6.11%
7,O=[As](O)(O)c1cccnc1,inactive: -0.26%
8,COc1cc(C(=O)NCC2(N3CCOCC3)CCCCC2)cc(Cl)c1OC(C)C,inactive: 3.64%
9,CS(=O)(=O)c1ccc(Cl)c(NC(=O)COC(=O)C(O)(c2ccccc2)c2ccccc2)c1,inactive: -0.882%
10,N#CCCN(C(=O)COC(=O)C(O)(c1ccccc1)c1ccccc1)c1ccc(F)cc1,inactive: 11.3%
11,CN(C(=O)Cc1ccccc1)[C@@H]1CC[C@]2(CCCO2)C[C@H]1N1CCCC1,inactive: 10.8%
12,CCOP1(=S)c2c(C)nn(CCC#N)c2N=C(c2ccc(F)cc2)N1C (configuration not stated),inactive: -4.98%
13,CN(C)C(=O)c1cc([N+](=O)[O-])cc2c1-c1c(cc([N+](=O)[O-])cc1[N+](=O)[O-])C2=O,inactive: -4.13%
14,CN(C(=O)Cc1ccc(Cl)c(Cl)c1)[C@H]1CC[C@@]2(CCCO2)C[C@@H]1N1CCCC1,inactive: 10.3%
15,NC(=O)Nc1ccc([As](=O)(O)O)cc1,inactive: -4.51%
16,O=C(O)COc1ccc([As](=O)(O)O)cc1[N+](=O)[O-],inactive: 1.23%
17,Nc1ccccc1[As](=O)(O)c1ccccc1,inactive: -0.428%
18,O=P(Nc1nccs1)(Oc1ccccc1)Oc1ccccc1,inactive: 6.75%
19,Nc1cccc([As](=O)(O)c2ccccc2)c1,inactive: 7.09%
20,O=[As](O)(c1cccs1)c1cccs1,inactive: -3.65%
21,NS(=O)(=O)c1cccc(NC(=O)COC(=O)C(O)(c2ccccc2)c2ccccc2)c1,inactive: 1.66%

row,Compound,CPE inhibition
1,CN(C)C1(CNC(=O)c2ccc(S(C)(=O)=O)cc2)CCCCC1,inactive: -3.07%
2,O=C(/C=C/c1ccccc1)OC1CN2CCC1CC2 (configuration not stated),active: 31.9%
3,CCCC1OP(=O)(Nc2ccccc2)OCC1CC (configuration not stated),inactive: -4.38%
4,Cc1ccc(C(=O)OC2CN3CCC2CC3)cc1 (configuration not stated),inactive: -1.87%
5,CC1CCC(C(C)C)C(OP(=O)(Nc2ccccn2)c2ccccc2)C1 (configuration not stated),inactive: -13%
6,CN(C(=O)Cc1ccc(Cl)c(Cl)c1)[C@@H]1CCCC[C@H]1N1CCCC1,inactive: 16.3%
7,CC(C)/C=N\N=C(\N)N[N+](=O)[O-],inactive: -2.11%
8,O=P1(N(CCCl)CCCl)NCCC(C(F)(F)F)O1 (configuration not stated),inactive: 2.24%
9,CC(C)(C)C(=O)NC(Sc1ncccn1)C(Cl)(Cl)Cl (configuration not stated),inactive: -4.49%
10,CCC1=CC2Cc3nc4ccc(Cl)cc4c(N)c3C(C1)C2 (configuration not stated),inactive: -22.8%
11,CCOP(=O)(NC(=NC(C)c1ccccc1)NC(C)c1ccccc1)OCC (configuration not stated),inactive: -7.82%
12,CCOP(=O)(Nc1ccc(C)cn1)OCC,inactive: 10.2%
13,CN(CCCl)Cc1cc(Cl)c(NC2=NCCN2)c(Cl)c1,inactive: 11.6%
14,O=C(OC1CN2CCC1CC2)c1cccc([N+](=O)[O-])c1 (configuration not stated),inactive: 4.13%
15,CCOC(=O)c1ccc(NC(=O)C(C)(CCl)SC)cc1 (configuration not stated),inactive: -1.52%
16,O=C(O)C(=O)c1ccc(N(CCCl)CCCl)cc1,inactive: 2.03%
17,O=C(Nc1ccncc1[N+](=O)[O-])c1ccc([N+](=O)[O-])cc1[N+](=O)[O-],inactive: -9.22%
18,COP1(=S)c2c(C)nn(CCC#N)c2N=C(c2ccc(F)cc2)N1C (configuration not stated),inactive: -3.42%
19,COC(=O)C1(C)COP(=O)(N2CCCC2)OC1 (configuration not stated),inactive: -4.48%
20,O=P(Nc1ccccn1)(c1cccc2ccccc12)c1cccc2ccccc12,inactive: 13.4%
21,O=[N+]([O-])c1ccc(Nc2ccc(Oc3ccc([N+](=O)[O-])cc3[N+](=O)[O-])cc2)c([N+](=O)[O-])c1,inactive: -5.64%

row,Compound,CPE inhibition
1,CCOC(=O)Nc1cccc([As](=O)(O)O)c1,inactive: -2.66%
2,COP(=O)(OC)N1CC1c1ccccc1 (configuration not stated),inactive: -5.46%
3,CCCCOc1ccc(C(=O)NCC2(N3CCCCC3)CCCCC2)cc1OC,inactive: 4.05%
4,O=C(O)C(O)c1ccc(N(CCCl)CCCl)cc1 (configuration not stated),inactive: -12.6%
5,CC1CCNP(=O)(N(CCCl)CCCl)O1 (configuration not stated),inactive: -2.12%
6,CC(C)NC(=O)NP(=O)(Oc1ccccc1)Oc1ccccc1,inactive: -3.05%
7,O=C(OC1CN2CCC1CC2)c1cccc2[nH]cnc12 (configuration not stated),inactive: 6.8%
8,COC(=O)C1(C)COP(=O)(N2CCCCCC2)OC1 (configuration not stated),inactive: -5.06%
9,CC(C)c1ccc(OP(=O)(Nc2ccccn2)Oc2ccccc2F)cc1 (configuration not stated),inactive: -4.91%
10,Cc1ccc(OP(=O)(Nc2ccc([N+](=O)[O-])cn2)Oc2ccc(C)cc2)cc1,inactive: -4.01%
11,[N-]=[N+]=NC1CCCCC1NC(=O)c1cc([N+](=O)[O-])cc([N+](=O)[O-])c1 (configuration not stated),inactive: 3.88%
12,Cc1ccc2nc3c(c(C)c2c1)CC(C(Cl)Cl)S3 (configuration not stated),inactive: 1.43%
13,O=[As](O)(c1ccc(O)cc1)c1ccccc1O,inactive: 1.66%
14,C[As](=O)(O)c1cccc(C(=O)O)c1,inactive: -0.548%
15,O=[N+]([O-])c1ccc(-c2cc([N+](=O)[O-])c(O)c([N+](=O)[O-])c2)cc1,inactive: -2.34%
16,O=[N+]([O-])c1cc(Oc2ccc([N+](=O)[O-])cc2C(F)(F)F)cc([N+](=O)[O-])c1,inactive: -3.91%
17,COc1ccc(N/C(=N/P(=O)(N2CCOCC2)N2CCOCC2)N2CCOCC2)cc1,inactive: -2.08%
18,O=P1(N(CCCl)CCCl)Nc2ccccc2N1,inactive: 1.88%
19,COc1ccc(CN2/C(=N\P(=O)(Oc3ccccc3)Oc3ccccc3)Cc3ccccc3C2C2CC2)cc1 (configuration not stated),inactive: 1.3%
20,COc1ccc2nc(NP(=O)(c3ccccc3)c3ccccc3)sc2c1,inactive: -1.16%
